Assays:
human isolated bronchi = assay: Inhibition by CGRP of carbamylcholine-induced contraction in human isolated airways; type: cell-based
Procedure: Because lung inflammation is a common feature in asthmatic patients, experiments were then repeated using human isolated airways to determine whether this same phenomenon also occurred. Macroscopically normal lung specimens were obtained from 6 patients undergoing surgery for carcinoma and from autopsy (n=9) performed within 6 hours of death. The study protocol was approved by the Ethical Committee of the University Hospital. […] The lung specimens were transported to the laboratory in ice-cold pre-oxygenated Krebs solution. Suitable cartilaginous bronchi (internal diameter 2 to 4 mm) were dissected free of adjacent tissue and were either used immediately (autopsy cases) or after 24 hr storage in pre-oxygenated Krebs solution at 4° C. Isolated bronchi were cut into helical strips and set up for isometric recording (initial tension: 1 g) under the conditions described for the isolated guinea pig airways. They were primed by adding 10^−3M carbamylcholine followed by washouts, which ensured a stable function for the rest of the experiment.

[1] = system: guinea pig isolated bronchi; assay: Inhibition by CGRP of substance P-induced contraction in isolated main bronchi; type: cell-based
Procedure: Adult Hartley albino guinea pigs of either sex, weighing 200-250 g were actively sensitized to ovalbumin (OA), as described in (20). They were injected with 100 mg i.p. and 100 mg s.c. of OA on day 1 and a further 10 mg i.p. was administered as a booster on day 8. They were used experimentally 14 or 15 days later. Control animals received the vehicle solution only. All research protocols conform to the guiding principles for animal experimentation and were approved by the Ethical Committee on Animal Research of the Medical School of the Université de Sherbrooke.
Guinea pigs were killed by exsanguination following intraperitoneal injection of pentobarbitone sodium (50 mg/kg). The trachea and lungs were quickly removed and placed in cold Krebs solution. Both right and left main bronchi were dissected out and cut into spirals. Parenchymal strips (approximately 15 mm×3 mm×3 mm) were cut from the periphery of either right or left lower lobes of the lung as previously described (4, 20). Each preparation was mounted in a 5 ml organ bath containing Krebs solution (37° C.) bubbled with 5% CO2 in O2. Contractions were measured isometrically with a Grass FT03 force displacement transducer and recorded on a Grass polygraph (Model 7D) as tension changes (g). […]

allergic sheep [2] = assay: Ascaris suum antigen-induced early and late increases in pulmonary resistance in sheep; type: in vivo; conditions: aerosol 0.5 mg in 2 ml PBS pretreatment
Source text: (§1) Eighteen sheep with a mean weight of 35 kg (range: 24 to 52 kg) were used for this study. […] Ten of these animals were defined as non-allergic and 8 as allergic, based on the absence or presence of both early and late airway responses after a standard inhalation challenge with Ascaris suum antigen. All sheep were allowed a 4-week recovery period after the allergen challenge before experimentation began. For each of the procedures hereafter presented, the unsedated animals were restrained on a standard shopping cart in the prone position and their heads were immobilized. […]
(§2) The techniques used for investigating airway mechanics were again well-validated and standardized procedures (as is usually the case with large mammals). […] Lateral pressure in the trachea was measured with a sidehole catheter (inner diameter=2.5 mm) advanced through and positioned distal to the tip of the endotracheal tube. […] The transpulmonary pressure and flow signals were recorded on a Hewlett Packard (model 7754B, Mass. USA) multichannel recorder, which was linked to a PC 386 Personal Computer (IBM Equipment, Montreal, Quebec) for online calculation of mean RL by dividing the change in transpulmonary pressure by the change in flow at mid-tidal volume (Vt) (obtained by digital integration). […]

allergic sheep [3] = assay: Metacholine-induced non-specific airway responsiveness in allergic sheep; type: in vivo; conditions: inhaled 0.5 mg in 2 ml PBS
Source text: as §1, §2

calcitonin gene-related peptide [CGRP]
antispasmogenic effect on carbamylcholine (10^−6M) contraction (human isolated bronchi; control human tissues (no inflammation)): efficient antispasmogenic agent
bronchoprotector properties against carbamylcholine (10^−6M) contraction (human isolated bronchi; inflammed human airways): totally abolished
inhibitory effect on SP-induced contraction, percentage of contraction developed by SP alone ([1]; control guinea pigs, main bronchus, CGRP 10^−6M, n=3): 20.3±1.5%
prevention of SP-induced bronchoconstriction ([1]; main bronchi from OA-sensitized guinea pigs): failed to significantly prevent
effect on acute (early phase) Ascaris suum-induced increase in RL (allergic sheep [2]): completely blocks
effect on late phase bronchoconstriction to Ascaris suum antigen (allergic sheep [2]): completely blocks
protection against metacholine-induced increase in airway resistance (allergic sheep [3]): 100%

From patent publication US6743429B2, “Use of calcitonin gene-related peptide in the prevention and alleviation of asthma and related bronchospastic pulmonary diseases” (Sherbrooke University, priority 1999, dated 2004)
